Experimental data as given in patent US8361968B2 (Takeda Pharmaceutical Company Limited, priority 2002, dated 2013).
Several values for one entry are separate records, joined by “and”; a condition that tells them apart may be missing. Equal values may be shown once.

Legend:
immature rat = experiment: Induction of ovulation in immature rat using metastin derivatives; type: in vivo, rats
Description: Equine chorionic gonadotropin (eCG, serotropin, Dainippon Pharmaceutical Co., Ltd.) was dissolved in saline (Otsuka Pharmaceutical Co., Ltd.) in a concentration of 100 IU/mL. Using a 1 mL tuberculin syringe with a 26-gauge needle (both by Terumo Co., Ltd.), eCG was subcutaneously injected into the dorsal area of female Wistar rats of 23 days old after birth (Charles River Japan, Inc.) in a dose of 10 IU/animal, during 9:00 to 10:00 AM. As shown below, the animal was grouped 47 to 48 hours after the eCG injection and the drugs were given to these groups, respectively.
(§1) Group A (5 rats): Human chorionic gonadotropin (hCG, gonadotropin, Dainippon Pharmaceutical Co., Ltd.) was dissolved in saline at 100 IU/mL and the solution was subcutaneously injected into the back in a dose of 20 IU/animal.
Group B (5 rats): Compound No. 305 was dissolved in saline at 33.3 nmol/mL and the solution was subcutaneously injected into the back in a dose of 6.7 nmol/animal.
Group C (5 rats): Compound No. 305 was dissolved in saline at 10.0 nmol/mL and the solution was subcutaneously injected into the back in a dose of 2.0 nmol/animal.
Group D (5 rats): Compound No. 322 was dissolved in saline at 33.3 nmol/mL and the solution was subcutaneously injected into the back in a dose of 6.7 nmol/animal.
Group E (5 rats): Compound No. 322 was dissolved in saline at 10.0 nmol/mL and the solution was subcutaneously injected into the back in a dose of 2.0 nmol/animal.
Group F (6 rats): Saline was subcutaneously injected into the back in a dose of 200 μL/animal.
After administration of these drugs, the animal was sacrificed by decapitation after 24 to 25 hours to recover blood, bilateral oviducts and uterus. […]
The number of oocytes was counted by referring to the method described in Eur. J. Endocrinol., 138, 594-600 (1998). […] After granulosa cells surrounding the oocytes were removed by trypsin treatment, the number of oocytes was counted. […]

immature rats = experiment: Induction of ovulation by human metastin in immature rats; type: in vivo
Description: Equine chorionic gonadotropin (eCG, serotropin, Dainippon Pharmaceutical Co., Ltd.) was dissolved in saline (Otsuka Pharmaceutical Co., Ltd.) in a concentration of 100 IU/mL. Using a 1 mL tuberculin syringe with a 26-gauge needle (both by Terumo Co., Ltd.), eCG was subcutaneously injected into the dorsal area of female Wistar rats of 23 days old after birth (Charles River Japan, Inc.) in a dose of 10 IU/animal, during 9:30 to 10:00 AM. As shown below, the animal was grouped 47 to 48 hours after the eCG injection and the drugs were injected to these groups, respectively.
as §1
Group D (6 rats): Saline was subcutaneously injected into the back in a dose of 200 μL/animal.
After administration of the drugs described above, the animal was sacrificed by decapitation after 24 to 25 hours to recover blood, bilateral oviducts and uterus. In collecting the blood, 90 μL of 10 KIU/mL aprotinin solution (Trasylol, Bayer) containing 3 mg/ml EDTA had been previously filled in a tube for recovery to prevent blood clotting. After blood recovery, the blood was thoroughly blended and the mixture was centrifuged at 2,000 G for 25 minutes. The supernatant was recovered and used as a plasma sample.
The number of oocytes was counted as follows.
Where retained oocytes in the oviducal ampulla were confirmed by stereomicroscopic observation of the oviduct, the ampulla was punctured with a 27-gauge syringe needle (Terumo) to retrieve the oocytes. After granulosa cells surrounding the oocytes were removed by trypsin treatment, the number of oocytes was counted. Where the retained oocytes in the oviducal ampulla were not confirmed by stereomicroscopic observation of the oviduct, a 27-gauge syringe needle with the polished tip was inserted into the tubal ostium and more than 400 μL of saline was flushed into the oviduct and uterine for rinsing. Then, the presence or absence of oocytes in the effluent was observed.
The level of estradiol contained in the plasma collected from the rats shown in TABLE 22 was determined by radioimmunoassay (DPC-Estradiol Kit; Diagnostic Products Corporation).
The level of progesterone contained in plasma was determined by radioimmunoassay (DPC.Progesterone; Diagnostic Products Corporation).

[1] = Group A: eCG-primed immature female rats, 20 IU/animal s.c.

## hCG: Human chorionic gonadotropin (hCG, gonadotropin, Dainippon Pharmaceutical Co., Ltd.), reference ovulation inducer
Immature rat; Group A: 20 IU/animal s.c. (FIG. 21)
  level of estradiol contained in plasma: no difference
Immature rat; Group A: 20 IU/animal s.c. (FIG. 22)
  level of progesterone in blood: highest
Immature rat; [1]
  number of oocytes in average per rat: 38.0 oocytes
Immature rats; Group A: 20 IU/animal s.c. (FIG. 12)
  level of estradiol contained in plasma: no difference in the level of estradiol
Immature rats; Group A: 20 IU/animal s.c. (FIG. 13)
  level of progesterone contained in plasma: highest
Immature rats; [1]
  number of oocytes in average per rat: 37.6 oocytes
Immature rats; Group A: hCG 20 IU/animal subcutaneously, immature rats
  Number of oocytes, individual rats 1 to 5: 36 and 35 (2×) and 40 and 42
Immature rats; Group A: hCG 20 IU/animal subcutaneously, immature rats, 24 to 25 hours after administration
  Average number of ova: 37.6
